We go through 4 substances from US8722732B2, “Oligomer-calcimimetic conjugates and related compounds” (Nektar Therapeutics, priority 2009, dated 2014).

The conditions of series [1]: rat, in vivo, 1 mg/kg.
Series [2] deals with plasma PTH (parathyroid hormone) levels. The settings on record: rat, in vivo.

For “Four-arm-PEG20k-L-leucine-acyloxymethyl-carbamate-cinacalcet [Compound (21)]”, in series [1], the “cinacalcet release after intravenous administration (in words)” value (“cinacalcet release” below) is reported as “relatively significant amounts of cinacalcet release” and the “time for which release of cinacalcet continues following intravenous administration” value is 8 to 12 h. Further, in series [1] (iv), the T1/2 was 4.67 h and the “t1/2 compared to Compound (20)” value was 2 fold.
“mPEG10k-L-leucine-acyloxymethyl-carbamate-cinacalcet [Compound (20)]”: in series [1], the “cinacalcet release” value was “relatively significant amounts of cinacalcet release” and the “time for which release of cinacalcet continues following intravenous administration” value is 8 to 12 h. Further, the T1/2 in series [1] (iv) worked out at 2.32 h.
Take “mPEG10k-glycine-amide-cinacalcet [Compound (15)]”: the “cinacalcet release” value in series [1] is “substantially no release of cinacalcet”.
As for “Four-arm-PEG20k-glycine-amide-cinacalcet [Compound (16)]”, the “release of cinacalcet (stable linker, in words)” value in series [2] is “diminished or no release of cinacalcet”. Moreover, the “cinacalcet release” value in series [1] is “substantially no release of cinacalcet”.
